scFv variants of Ab-95 (light chain) against a SARS-CoV-2 spike peptide

Reference: Engelhart et al. 2022, doi:10.1038/s41597-022-01779-4. File: FLAb, binding data.

All variants were tested on one target, the spike HR2 peptide PDVDLGDISGINAS (SARS-CoV-2).

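Phage display of a naive human antibody library on the peptide gave the parent. The library (AAYL52) carries one to three amino acid substitutions per variant, with no insertions or deletions. AlphaSeq pools MATa yeast showing the antibodies with MATalpha yeast showing the peptide. After mating in shaken culture at 30 °C for 16 h, diploids were selected and their barcode pairs sequenced. A regression on co-assayed BCL2-family reference pairs converts the normalised counts of each replicate to an apparent Kd. Mating was done three times.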

Ab-95 is the parent antibody, in scFv form: VH, then a 15-residue (Gly4Ser)3 linker, then VL. The heavy chain is unchanged in all variants.
VH: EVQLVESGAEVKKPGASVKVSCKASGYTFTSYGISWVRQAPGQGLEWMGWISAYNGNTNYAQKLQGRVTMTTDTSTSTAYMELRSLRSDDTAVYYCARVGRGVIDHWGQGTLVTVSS
VL: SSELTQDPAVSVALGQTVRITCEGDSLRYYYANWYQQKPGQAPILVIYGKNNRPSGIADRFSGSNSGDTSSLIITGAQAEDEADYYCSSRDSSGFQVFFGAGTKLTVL

Positions count from residue 1 of the parent VL; L27I puts I in place of L.
Scale: log10 of Kd in nM, estimated from mating counts; low values are strong binders.
Replicates are averaged; those with no signal do not enter the mean.
An entry "nd" has no value in the source: the pair was not observed among the diploids in any replicate. This suggests poor binding but is not conclusive.

changes	mean log10 Kd (nM)	detected
L27I/A32Y/N52S	4.27	2/3
R53S/S89K/G94Q	2.79	3/3
S26H/R28D/Y30E	1.89	3/3
Y29S/S92A/Q96Y	1.95	3/3
G49M/N52Q/S93Y	nd	0/3
L27Y/S55T/Q96N	2.57	3/3
R28H/P54W/R90Q	nd	0/3
G24T/N52V/S93L	3.75	1/3
N33T/G49F/F95V	3.86	1/3
N33D/S92K	3.62	3/3
E23S/G49S/D91S	3.02	3/3
S55D/S89R/Q96T	nd	0/3
K50E/S88L/S92I	4.13	3/3
Y29Q/S55W/F95D	2.62	3/3
S55L/D91A/S93I	3.82	2/3
P54Y/D91V	4.01	3/3
G24H/R90T/D91A	2.93	2/3
Y29D/S88F/F98R	2.05	3/3
G24R/L27S/R53D	4.48	3/3
N51L/P54T/S55V	nd	0/3
Y29I/N33W/N52M	nd	0/3
A32R/K50A/S92P	3.64	2/3
R28V/Y30L/V97M	3.19	1/3
G24P/S55F/S92N	4.38	2/3
Y31W/A32W/Q96T	4.02	3/3
S26F/A32G/N33F	nd	0/3
A32C/K50I/Q96Y	3.98	3/3
R53F/S89Y/R90E	nd	0/3
Y29V/D91I/F95R	nd	0/3
D25V/L27V/Y31T	4.06	1/3
D25N/S55F/V97K	4.13	2/3
S26D/Y30G/A32F	2.15	3/3
D91S/F95W	2.95	1/3
R53E/S92Y/Q96H	3.82	3/3
G24E/N33Y/R53C	4.33	2/3
D25T/N51R/G94C	4.37	1/3
Y29G/N51Q/F95V	2.67	3/3
A32Q/G49D/K50T	4.66	1/3
D25L/L27V/A32K	3.32	2/3
E23W/S88I/S93N	3.79	2/3
G24D/G49Y/P54T	nd	0/3
G24T/D25E/S93W	3.68	3/3
S88A/R90G/Q96D	2.00	3/3
S88C/D91E/S92C	2.92	3/3
S88V/S92N/Q96N	1.97	1/3
G49D/S88G/S89G	2.79	3/3
A32G/N33D/D91A	3.21	2/3
S89V/F95T/Q96W	3.43	2/3
Y30W/N52G/D91V	2.54	3/3
N51K/N52T	3.18	3/3
S26V/G49K/S89V	4.12	1/3
N33F/G49R/V97N	5.10	1/3
L27Y/S88L/R90A	3.81	3/3
A32H/S92F/Q96N	3.39	2/3
S26E/Y31H/S93I	5.80	1/3
L27T/G49K/S92G	4.24	2/3
S26P/Y31T/G49V	4.46	2/3
G49P/N52E/F98D	4.08	3/3
S26P/P54F/Q96F	2.58	3/3
Y31R/N52F/R53T	2.59	3/3
Y31P/K50Q/N51G	1.12	3/3

The opening 4 entries, copied out:

{"changes": "L27I/A32Y/N52S", "mean log10 Kd (nM)": "4.27", "detected": "2/3"}
{"changes": "R53S/S89K/G94Q", "mean log10 Kd (nM)": "2.79", "detected": "3/3"}
{"changes": "S26H/R28D/Y30E", "mean log10 Kd (nM)": "1.89", "detected": "3/3"}
{"changes": "Y29S/S92A/Q96Y", "mean log10 Kd (nM)": "1.95", "detected": "3/3"}

Three control strains display no target. For library AAYL52, 28% of the pairings with them gave a signal, with a median of 3.91 and one signal in twenty below 2.90, so weak values seen in few replicates may be background.